Where two headings read alike, the source gives them in different places.
Columns and labels:
AHR [1] = molecular target: AHR (Homo sapiens, UniProt P35869); assay: In vitro assay 1: antagonism in human cell line (AHR transactivation, firefly luciferase reporter, kynurenic acid prestimulated); assay type: cell-based
Experimental: Examples were tested in selected biological assays one or more times. When tested more than once, data are reported as either average values or as median values, wherein • the average value, also referred to as the arithmetic mean value, represents the sum of the values obtained divided by the number of times tested, and • the median value represents the middle number of the group of values when ranked in ascending or descending order. If the number of values in the data set is odd, the median is the middle value. If the number of values in the data set is even, the median is the arithmetic mean of the two middle values.
Transactivation assays were carried out in U87 MG glioblastoma cells (ATCC #HTB-14) endogenously expressing AHR. In addition the cells were stably transfected with an AHR inducible firefly luciferase reporter gene construct that carried AHR-binding sites (DRE) in its promoter and a renilla reporter gene construct with constitutively active promoter. Kynurenic acid is an endogenous AHR activating ligand and was used to prestimulate test cells prior to testing the antagonistic properties of compounds.
As positive inhibition control cells supplemented with 150 μM kynurenic acid were incubated in presence of 5 μM Staurosporin. Normalization was done by positive and negative controls.
Firefly luciferase and Renilla activity was determined by the DualGlo Luciferase Assay System (Promega, #2920). Renilla activity was used to assess toxic effects of compounds.

Amino acid sequences for entries named in this document (tags omitted). Residues count along the entry.
UniProt P35869, 11-848 limits assumed: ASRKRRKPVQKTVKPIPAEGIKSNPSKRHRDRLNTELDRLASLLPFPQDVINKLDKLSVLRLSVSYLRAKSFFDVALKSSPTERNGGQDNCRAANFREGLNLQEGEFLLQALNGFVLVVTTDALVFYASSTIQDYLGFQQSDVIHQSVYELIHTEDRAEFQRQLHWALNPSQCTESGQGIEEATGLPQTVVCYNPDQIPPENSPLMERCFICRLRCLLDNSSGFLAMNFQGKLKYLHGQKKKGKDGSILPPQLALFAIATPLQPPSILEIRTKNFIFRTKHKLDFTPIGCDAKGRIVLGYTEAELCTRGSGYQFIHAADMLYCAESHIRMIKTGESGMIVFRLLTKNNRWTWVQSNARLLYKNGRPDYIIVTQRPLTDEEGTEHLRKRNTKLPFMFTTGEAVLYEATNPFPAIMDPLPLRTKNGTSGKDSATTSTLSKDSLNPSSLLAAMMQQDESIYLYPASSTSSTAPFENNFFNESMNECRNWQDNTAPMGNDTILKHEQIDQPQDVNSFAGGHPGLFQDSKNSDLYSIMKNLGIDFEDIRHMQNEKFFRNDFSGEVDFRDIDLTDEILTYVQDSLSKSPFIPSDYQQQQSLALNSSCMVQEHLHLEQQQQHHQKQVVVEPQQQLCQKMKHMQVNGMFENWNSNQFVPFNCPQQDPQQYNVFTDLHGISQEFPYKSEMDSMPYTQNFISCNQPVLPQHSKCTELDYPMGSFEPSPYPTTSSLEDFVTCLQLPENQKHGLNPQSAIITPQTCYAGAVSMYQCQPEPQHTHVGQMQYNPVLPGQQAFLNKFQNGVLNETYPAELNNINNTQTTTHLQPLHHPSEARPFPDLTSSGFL
UniProt P30561, whole entry P471L/N533S/M589L: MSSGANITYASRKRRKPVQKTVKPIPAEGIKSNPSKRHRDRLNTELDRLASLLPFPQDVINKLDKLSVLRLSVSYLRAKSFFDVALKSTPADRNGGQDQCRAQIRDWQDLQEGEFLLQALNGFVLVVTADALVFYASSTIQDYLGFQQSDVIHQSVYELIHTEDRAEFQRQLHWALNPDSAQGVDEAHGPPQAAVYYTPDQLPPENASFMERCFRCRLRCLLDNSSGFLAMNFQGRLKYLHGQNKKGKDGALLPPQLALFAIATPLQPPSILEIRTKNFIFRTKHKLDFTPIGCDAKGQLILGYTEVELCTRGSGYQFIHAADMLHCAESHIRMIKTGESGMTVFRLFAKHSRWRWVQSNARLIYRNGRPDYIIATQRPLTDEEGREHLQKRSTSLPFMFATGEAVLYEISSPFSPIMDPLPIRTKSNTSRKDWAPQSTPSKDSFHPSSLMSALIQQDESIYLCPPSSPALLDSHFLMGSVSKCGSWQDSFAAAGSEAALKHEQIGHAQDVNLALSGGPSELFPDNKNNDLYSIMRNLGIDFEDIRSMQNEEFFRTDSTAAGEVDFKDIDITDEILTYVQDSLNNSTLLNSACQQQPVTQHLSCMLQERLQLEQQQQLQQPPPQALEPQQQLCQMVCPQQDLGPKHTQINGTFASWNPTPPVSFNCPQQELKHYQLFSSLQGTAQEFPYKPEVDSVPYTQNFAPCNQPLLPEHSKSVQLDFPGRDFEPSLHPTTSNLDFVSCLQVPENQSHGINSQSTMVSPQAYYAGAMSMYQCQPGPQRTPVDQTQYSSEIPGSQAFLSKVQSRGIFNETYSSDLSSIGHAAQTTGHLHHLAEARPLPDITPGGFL

AHR [2] = molecular target: AHR (Mus musculus, UniProt P30561); assay: In vitro assay 3: antagonism in mouse cell line (AHR transactivation, firefly luciferase reporter, kynurenic acid prestimulated)
[3] = read-out: AHR Antagonism Human IC50, firefly luciferase reporter
[4] = read-out: AHR Antagonism Mouse IC50, Hepa 1c1c7 cells, 200 μM kynurenic acid, 20 hours, firefly luciferase reporter

| Structure (SMILES) | IC50 (AHR [1]; [3]) | IC50 (AHR [2]; [4]) | IC50 (AHR [1]; read-out: AHR Antagonism Human IC50) | IC50 (AHR [2]; read-out: AHR Antagonism Mouse IC50, mouse Hepa 1c1c7 cells, 200 μM kynurenic acid, 20 hours) |
| --- | --- | --- | --- | --- |
| COc1ccc(-c2nc3c4cccc(Br)c4nc(N[C@H](C)C(=O)NCC(C)(C)O)n3n2)cc1 | 1.13 nM | 1.2 nM |  |  |
| O=C1NCCNC[C@@H]1Nc1nc2c(C(F)(F)F)cccc2c2nc(-c3cnn(C4CC4)c3)nn12 | 19.4 nM | 36.3 nM |  |  |
| C[C@@H](Nc1nc2c(Br)cccc2c2nc(-c3cnn(C)c3)nn12)C(=O)NCC(C)(C)O | 60.6 nM | 47.2 nM |  |  |
| C[C@@H](Nc1nc2c(C(F)(F)F)cccc2c2nc(-c3cnn(C)c3)nn12)C(=O)NCCN1CCN(C)CC1 | 192 nM | 272 nM |  |  |
| Cc1cc(-c2nc3c4ccccc4nc(N[C@@H]4CCCCNC4=O)n3n2)c(C#N)n1C |  |  | 10 nM | 13.1 nM |
